Reference: patent US12516056B2, “Compounds for inhibition of janus kinase 1” (MANKIND PHARMA LTD., priority 2019, dated 2026)

Chains of the proteins cited; added tags and fusions are not shown. Lines headed by an entry give the natural chain unless they say otherwise; changes in a name come on top.
UniProt P29597: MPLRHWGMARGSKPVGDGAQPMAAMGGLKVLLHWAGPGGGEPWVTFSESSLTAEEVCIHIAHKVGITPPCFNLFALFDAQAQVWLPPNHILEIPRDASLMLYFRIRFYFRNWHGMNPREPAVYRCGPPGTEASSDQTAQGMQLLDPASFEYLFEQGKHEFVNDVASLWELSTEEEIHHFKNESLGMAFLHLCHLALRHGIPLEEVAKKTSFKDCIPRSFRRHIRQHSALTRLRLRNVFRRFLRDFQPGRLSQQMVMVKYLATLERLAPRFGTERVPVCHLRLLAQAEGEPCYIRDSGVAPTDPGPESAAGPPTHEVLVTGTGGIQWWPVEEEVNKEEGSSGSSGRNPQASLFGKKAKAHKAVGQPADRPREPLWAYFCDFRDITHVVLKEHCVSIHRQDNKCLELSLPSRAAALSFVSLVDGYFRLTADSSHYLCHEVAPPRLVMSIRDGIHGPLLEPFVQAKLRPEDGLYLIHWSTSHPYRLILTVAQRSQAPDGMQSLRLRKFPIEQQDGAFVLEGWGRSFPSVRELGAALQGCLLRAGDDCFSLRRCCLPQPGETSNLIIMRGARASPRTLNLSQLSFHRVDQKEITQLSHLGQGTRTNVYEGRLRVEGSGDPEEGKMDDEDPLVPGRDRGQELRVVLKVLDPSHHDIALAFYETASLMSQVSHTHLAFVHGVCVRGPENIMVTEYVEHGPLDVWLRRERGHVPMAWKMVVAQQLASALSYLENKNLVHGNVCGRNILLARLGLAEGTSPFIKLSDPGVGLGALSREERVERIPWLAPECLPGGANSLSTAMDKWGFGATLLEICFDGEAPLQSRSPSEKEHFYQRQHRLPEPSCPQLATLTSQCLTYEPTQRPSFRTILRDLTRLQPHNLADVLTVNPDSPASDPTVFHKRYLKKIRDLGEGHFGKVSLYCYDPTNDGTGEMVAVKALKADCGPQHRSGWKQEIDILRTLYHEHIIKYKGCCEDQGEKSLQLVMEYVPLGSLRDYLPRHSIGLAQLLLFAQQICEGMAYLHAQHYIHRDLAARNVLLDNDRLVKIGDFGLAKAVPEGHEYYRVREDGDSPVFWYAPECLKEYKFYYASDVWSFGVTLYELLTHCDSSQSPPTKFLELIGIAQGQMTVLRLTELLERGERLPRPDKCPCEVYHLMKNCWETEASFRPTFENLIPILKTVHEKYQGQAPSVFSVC

Molecular target: T1, Recombinant TYK2 (Homo sapiens, UniProt P29597)
T1 construct: purchased Carna Biosciences
Test: JAK biochemical assay (LANCE Ultra TR-FRET), TYK2
Experimental: Recombinant JAK1, JAK2, JAK3 and TYK2 (Carna Biosciences) were used to develop biochemical assays in 50 mM HEPES pH 7.5, 1 mM EGTA, 10 mM MgCl2, 2 mM DTT and 0.01% Tween-20. […] The intensity of the light emission is proportional to the level of ULight substrate phosphorylation. Compounds which interfere with JAK enzyme activity show a lesser substrate phosphorylation and values are projected in terms of % inhibition in comparison to vehicle control.

O=C(Nc1nc2cccc(-c3ccc(CN4CCS(=O)(=O)CC4)cc3)n2n1)C1CC1 [Filgotinib, filgotinib, reference compound]
IC50: 490 nM
